From patent US20240376151A1, “STAPLED PEPTIDES AND METHODS THEREOF” (FOG PHARMACEUTICALS, INC., priority 2022, published 2024)

The chains behind the UniProt entries cited, without tags or fusion partners. Residues count along the entry.
UniProt Q9NZQ7, 18-239: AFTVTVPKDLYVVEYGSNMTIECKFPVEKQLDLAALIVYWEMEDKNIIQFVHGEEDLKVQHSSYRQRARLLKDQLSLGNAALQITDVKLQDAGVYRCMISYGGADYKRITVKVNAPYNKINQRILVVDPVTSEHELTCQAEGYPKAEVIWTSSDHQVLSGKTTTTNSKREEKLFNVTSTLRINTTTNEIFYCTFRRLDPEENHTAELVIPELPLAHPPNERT

Molecular target: PD-L1 (Homo sapiens, UniProt Q9NZQ7)
Settings: PD-L1 in the presence of competitor PD1_300

| phage screen counts, Competitor PD1_300 | Sequence |
| --- | --- |
| 496 | DPALWQCVFAARSCYEE |
| 0 | DPAAADCQWAAFLCRVY |
